Reference: PMC6063412, “Development of monoclonal anti-PDGF-CC antibodies as tools for investigating human tissue expression and for blocking PDGF-CC induced PDGFRα signalling in vivo” (PLoS ONE, 2018)

Amino acid sequences for entries named in this document (tags omitted). Residues count along the entry.
UniProt Q9NRA1, 230-345: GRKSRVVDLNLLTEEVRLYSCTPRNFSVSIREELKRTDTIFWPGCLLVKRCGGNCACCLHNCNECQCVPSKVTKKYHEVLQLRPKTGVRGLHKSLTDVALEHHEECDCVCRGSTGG

Target: T1, recombinant human PDGF-CC core domain protein (activated PDGF-CC, growth factor domain) (human, UniProt Q9NRA1)
T1 construct: platelet-derived growth factor C, human, core domain (growth factor domain, GFD) released from the N-terminal CUB domain; also called hPCc; active PDGF-CC
Experiment: immunoblot; human, mouse and rat PDGF-CC, reduced and non-reduced, probed with ch6B3

B1: chimeric anti-PDGF-CC antibody ch6B3 (antibody, V domains shown)
VH: QVQLQQSGVEVARPGASVKLSCKASGYTFGSYGITWVRQRTGQGLEWIGEIYPRSGKTYYNEKFKGKATLTADTSSSTVYMELRSLTSEDSAVYFCAREGYGYDGGYFDYWGQGTTLTVSS
VL: DIVMTQSPSSLAMSVGQKVTMSCKSSQSLLNSRNQKNYLAWYQQKPGQSPKLLVYFASTRESGVPDRFTGSGSGTDFTLTISSVQAEDLAVYYCQQHYSTPLTFGAGTKLELK
binding result: binds
